Test results reported in patent US10189807B2, “Tetrahydrothiophene-based GABA aminotransferase inactivators” (Northwestern University, priority 2015, dated 2019).

By UniProt entry, the sequences of proteins in these tests, tags left out. Residues count along the entry.
UniProt P80147, 29-500 limits assumed: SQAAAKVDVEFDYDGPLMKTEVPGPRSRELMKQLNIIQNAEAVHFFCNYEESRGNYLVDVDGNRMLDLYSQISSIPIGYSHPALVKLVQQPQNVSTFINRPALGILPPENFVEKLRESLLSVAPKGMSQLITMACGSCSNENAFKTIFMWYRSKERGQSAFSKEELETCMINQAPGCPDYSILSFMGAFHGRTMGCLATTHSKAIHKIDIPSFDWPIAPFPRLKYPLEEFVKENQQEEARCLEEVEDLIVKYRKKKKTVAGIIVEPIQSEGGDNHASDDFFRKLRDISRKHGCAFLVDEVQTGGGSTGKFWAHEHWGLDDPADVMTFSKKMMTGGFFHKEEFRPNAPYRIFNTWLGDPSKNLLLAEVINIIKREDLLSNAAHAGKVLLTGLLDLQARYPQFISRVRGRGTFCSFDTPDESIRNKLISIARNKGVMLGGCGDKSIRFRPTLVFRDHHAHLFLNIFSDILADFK

Molecular target: GABA-AT (Sus scrofa (Pig), UniProt P80147)
Experiment: Time-dependent inhibition (inactivation) of GABA-AT, Kitz and Wilson replot
Assay type: biochemical
Settings: pH 6.5, 25° C.; for kinact: Kitz and Wilson replot
Method: GABA-AT was isolated and purified from pig brain by a published procedure.
GABA-AT (17.5 μL) was incubated in the presence of varying concentrations of each compound (70 μL final volume) at 25° C. in 50 mM potassium pyrophosphate buffer solution, pH 6.5, containing 5 mM α-ketoglutarate and 1 mM β-mercaptoethanol. […] The relative enzyme activity was determined by normalizing the rate of increasing absorbance at 340 nm to a control. A Kitz and Wilson replot was used to determine the kinetic constants KI and kinact.

Row | SMILES | kinact/KI | kinact
1 | Cl.N[C@@H]1CS[C@H](C(=O)O)C1 [Compound 17, (2S,4S)-4-Aminotetrahydrothiophene-2-carboxylic acid hydrochloride] | 15.5 M⁻¹ s⁻¹ | 0.00283 s⁻¹
2 | Cl.N[C@@H]1CS[C@@H](C(=O)O)C1 [Compound 18, (2R,4S)-4-Aminotetrahydrothiophene-2-carboxylic acid hydrochloride] | 0.833 M⁻¹ s⁻¹ | 0.002 s⁻¹
